These results are taken from US20110098180A1, “Herbicide-Resistant Plants, And Polynucleotides And Methods For Providing Same” (United States Department of Agriculture, priority 2002, published 2011).

Protein sequences, listed by entry. Tags and fused reporters are not part of them. Residues count along the entry.
UniProt Q66PY0, 77-580 R304T: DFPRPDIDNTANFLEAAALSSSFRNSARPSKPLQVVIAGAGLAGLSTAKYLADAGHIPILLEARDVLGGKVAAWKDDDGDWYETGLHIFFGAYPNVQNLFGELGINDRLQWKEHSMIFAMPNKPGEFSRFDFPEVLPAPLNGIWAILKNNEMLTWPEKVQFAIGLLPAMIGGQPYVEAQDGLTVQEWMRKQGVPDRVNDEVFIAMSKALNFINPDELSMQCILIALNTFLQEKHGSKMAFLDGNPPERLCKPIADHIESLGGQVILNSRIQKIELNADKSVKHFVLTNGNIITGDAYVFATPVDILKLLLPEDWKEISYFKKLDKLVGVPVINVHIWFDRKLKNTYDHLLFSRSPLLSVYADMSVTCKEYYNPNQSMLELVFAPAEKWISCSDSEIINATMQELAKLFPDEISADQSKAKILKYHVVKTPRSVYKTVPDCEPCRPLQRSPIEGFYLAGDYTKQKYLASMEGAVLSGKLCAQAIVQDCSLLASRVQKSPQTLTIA
UniProt Q66PY0, 77-580 R304S: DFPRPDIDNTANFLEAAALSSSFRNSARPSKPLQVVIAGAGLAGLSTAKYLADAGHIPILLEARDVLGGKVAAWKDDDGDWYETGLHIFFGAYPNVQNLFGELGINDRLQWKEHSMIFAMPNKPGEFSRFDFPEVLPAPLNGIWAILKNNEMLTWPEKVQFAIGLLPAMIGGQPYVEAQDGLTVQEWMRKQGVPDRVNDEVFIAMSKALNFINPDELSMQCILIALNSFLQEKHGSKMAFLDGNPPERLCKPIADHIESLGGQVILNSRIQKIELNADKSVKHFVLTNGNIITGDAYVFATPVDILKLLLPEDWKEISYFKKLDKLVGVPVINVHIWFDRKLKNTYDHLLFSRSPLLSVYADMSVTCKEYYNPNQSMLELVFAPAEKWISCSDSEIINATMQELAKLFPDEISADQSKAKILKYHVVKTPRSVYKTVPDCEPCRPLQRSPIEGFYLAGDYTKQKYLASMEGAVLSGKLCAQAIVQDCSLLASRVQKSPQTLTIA
UniProt Q66PY0, 77-580 R304C: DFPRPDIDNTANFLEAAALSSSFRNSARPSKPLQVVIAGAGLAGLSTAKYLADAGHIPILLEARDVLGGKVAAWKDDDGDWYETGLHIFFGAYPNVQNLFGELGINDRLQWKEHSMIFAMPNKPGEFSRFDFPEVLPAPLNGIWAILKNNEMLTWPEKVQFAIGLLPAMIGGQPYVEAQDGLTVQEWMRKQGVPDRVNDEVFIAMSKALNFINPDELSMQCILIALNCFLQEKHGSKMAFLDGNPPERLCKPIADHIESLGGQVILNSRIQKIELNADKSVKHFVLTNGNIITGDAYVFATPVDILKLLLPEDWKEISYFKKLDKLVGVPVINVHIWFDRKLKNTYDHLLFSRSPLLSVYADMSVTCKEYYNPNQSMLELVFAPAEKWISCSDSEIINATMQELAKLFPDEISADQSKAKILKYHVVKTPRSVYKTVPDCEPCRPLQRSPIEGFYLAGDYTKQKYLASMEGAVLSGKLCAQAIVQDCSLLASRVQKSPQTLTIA
UniProt Q66PY0, 77-580 R304H: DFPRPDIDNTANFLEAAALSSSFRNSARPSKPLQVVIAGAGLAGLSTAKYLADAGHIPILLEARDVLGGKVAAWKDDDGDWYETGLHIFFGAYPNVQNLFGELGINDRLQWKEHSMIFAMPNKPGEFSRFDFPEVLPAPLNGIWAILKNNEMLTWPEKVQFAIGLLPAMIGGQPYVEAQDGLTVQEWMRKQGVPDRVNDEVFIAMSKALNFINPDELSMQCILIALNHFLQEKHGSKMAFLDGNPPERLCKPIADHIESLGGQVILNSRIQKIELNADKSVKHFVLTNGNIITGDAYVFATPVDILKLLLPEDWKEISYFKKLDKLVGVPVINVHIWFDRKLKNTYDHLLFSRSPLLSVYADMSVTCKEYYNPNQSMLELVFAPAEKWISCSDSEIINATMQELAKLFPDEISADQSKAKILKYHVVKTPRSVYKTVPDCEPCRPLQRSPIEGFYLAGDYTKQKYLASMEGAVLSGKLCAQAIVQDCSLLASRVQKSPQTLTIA

Experiment in all cases: Cross-resistance testing, His-tagged column-purified PDS (Table 2A)
What all share (assay type): biochemical

In experiment [1] the target is hydrilla PDS Arg^304 → Threonine, His-tagged (Hydrilla verticillata, UniProt Q66PY0, R304T). Conditions: read-out: I50, Threonine at 304. The source says:
(§1) In further cross-resistance testing similar to that described above, an alternative production and purification protocol was used in the preparation of the mutant PDS proteins, and the activity of the proteins was again tested using the same testing protocol. The alternative approach utilized His-tagging and column purification of the mutant PDS protins. The results are shown in. Table 2A below.
(§2) The plasmid pHy4ATG5 was made by cloning the Phytoene Desaturase (pds) gene from Hydrilla verticillata, including 323 by upstream of the beginning of the putative mature protein, into the vector TOPO4 (Invitrogen, Carlsbad, Calif.): The 1-323 by region contained three potential start codons (ATG)(positions 1, 114 and 225 bp) in frame with pds. In order to express pds in bacteria, deletion clones were made for each of the three potential start codons with and without ATG. Only the results for possible origins of translation 1 and 225 by (named ORF and 3ORF) are reported here. pds was PCR amplified and subcloned into TOPO4 using pHy4ATG5 as template and the reverse primer RPDS—1849 (5′[…] 3′). The forward primers used were ORF (5′ […] 3′), ORF-ATG (5′ […] 3′), 3_ORF (5′[…] 3′) and 3_ORF-ATG (5′ […] 3′). The resulting plasmids were named pORF, pORF-ATG (minus ATG codon), p3ORF and p3ORF-ATG. The pds-containing EcoRI-fragments of these plasmids were subcloned into the EcoRI site of pRSETb vector (Invitrogen) for Histidine tagging and bacterial expression. The resulting constructs were pHy4SET, pHy4SET-ATG (minus ATG), p3ORFSET and p3ORFSET-ATG.
(§3) Plasmid p3ORF-ATG was later mutagenized at the amino acid 304 of pds to replace the amino acid Arginine (Arg) by Histidine (His), Threonine (Thr), Serine (Ser), or Cysteine (Cys), using the QuickChange™ Site-Directed Mutagenesis Kit of Stratagene (La Jolla, Calif.). Primers used to replace Arg by His were Hyd-His-For (5′[…] 3′) and Hyd-His-Rev (5′ […] 3′); to replace Arg by Thr we used primers Hyd-Thr-For (5′[…] 3′) and Hyd-Thr-Rev (5′[…] 3′); to replace Arg by Ser we used Hyd-Ser-For (5′[…] 3′) and Hyd-Ser-Rev (5′[…] 3′); and Arg was replaced by Cys using Hyd-Cys-For (5′[…] 3′) and Hyd-Cys-Rev (5′[…] 3′). Resulting plasmids were named: p3ORFHisSet-ATG, p3ORFThrSet-ATG, p3ORFSerSet-ATG and p3ORFCysSet-ATG.
(§4) All pRSET derived constructs were transformed into BL21(DE3)pLysS cells (Invitrogen), induced with IPTG for protein expression, and the His tag overproduced proteins analyzed by Western blot using Anti-HisG antibody (Invitrogen, cat. #R940-25).
(§5) When working with His-tagged PDS proteins expressed as described in Example 4, the purified protein used for testing was prepared as follows. […]

The target of experiment [2] is hydrilla PDS Arg^304 → Serine, His-tagged (Hydrilla verticillata, UniProt Q66PY0, R304S). The settings on record: read-out: I50, Serine at 304.
Excerpt: as §1, §2, §3, §4, §5

Experiment [3] concerns the target hydrilla PDS Arg^304 → Cysteine, His-tagged (Hydrilla verticillata, UniProt Q66PY0, R304C). The settings on record: read-out: I50, Cysteine at 304.
Excerpt: as §1, §2, §3, §4, §5

For experiment [4], the target named is hydrilla PDS Arg^304 → Histidine, His-tagged (Hydrilla verticillata, UniProt Q66PY0, R304H). Conditions: read-out: I50, Histidine at 304.
Excerpt: as §1, §2, §3, §4, §5

With Fluridone, the IC50 was 2370 µM in experiment [1], 611 µM in experiment [2], 799 µM in experiment [3] and 1470 µM in experiment [4].
